The values that follow are results of earlier work, collected in patent publication US5571832A (priority 1994, dated 1996).

One data set deals with kappa opioid receptors. Particulars: cited from earlier work.
In another data set the test system is sigma receptor. Particulars: cited from earlier work.

Structures are written as SMILES.

Regarding `CN(C(=O)Cc1ccc(Cl)c(Cl)c1)[C@@H]1CCCC[C@H]1N1CCCC1` (relative stereo), the “kappa opioid receptor ligand” value with kappa opioid receptors was “highly selective ligand for kappa opioid receptors”.
Take `CN(C(=O)Cc1ccc(Cl)c(Cl)c1)[C@H]1CCCC[C@H]1N1CCCC1` (relative stereo): in the data set with sigma receptor, the “sigma ligand potency and selectivity” value was “potent and selective sigma ligands”.
